Data taken from patent EP1121436B1, “NON-DESENSITIZING AMPA-RECEPTORS” (Max-Planck-Gesellschaft zur Förderung der Wissenschaften …, priority 1998, dated 2000).

Chains of the proteins cited; added tags and fusions are not shown. Lines headed by an entry give the natural chain unless they say otherwise; changes in a name come on top.
UniProt P19492: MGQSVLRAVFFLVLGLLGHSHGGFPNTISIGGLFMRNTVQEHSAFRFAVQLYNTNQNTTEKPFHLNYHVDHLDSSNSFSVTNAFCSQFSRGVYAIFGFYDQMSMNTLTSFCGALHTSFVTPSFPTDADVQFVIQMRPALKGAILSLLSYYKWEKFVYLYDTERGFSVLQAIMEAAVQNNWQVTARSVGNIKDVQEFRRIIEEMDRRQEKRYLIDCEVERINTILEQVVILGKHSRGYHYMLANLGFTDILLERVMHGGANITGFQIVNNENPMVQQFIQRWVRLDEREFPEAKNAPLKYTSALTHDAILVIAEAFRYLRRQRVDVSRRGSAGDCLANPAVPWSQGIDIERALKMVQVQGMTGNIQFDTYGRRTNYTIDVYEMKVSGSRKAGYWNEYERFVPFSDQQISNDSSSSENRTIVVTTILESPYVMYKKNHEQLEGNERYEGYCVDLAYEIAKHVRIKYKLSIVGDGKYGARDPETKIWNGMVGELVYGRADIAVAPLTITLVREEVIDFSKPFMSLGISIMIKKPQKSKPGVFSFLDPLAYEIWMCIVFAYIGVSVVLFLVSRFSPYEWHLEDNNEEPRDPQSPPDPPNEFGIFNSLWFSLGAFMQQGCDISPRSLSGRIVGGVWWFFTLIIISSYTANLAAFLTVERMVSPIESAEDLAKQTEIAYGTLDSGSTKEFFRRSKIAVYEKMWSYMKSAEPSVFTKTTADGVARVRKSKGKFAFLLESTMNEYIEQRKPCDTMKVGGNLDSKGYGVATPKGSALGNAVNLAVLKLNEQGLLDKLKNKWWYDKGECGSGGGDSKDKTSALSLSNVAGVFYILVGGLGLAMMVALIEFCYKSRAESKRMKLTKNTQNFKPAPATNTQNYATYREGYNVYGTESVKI
UniProt P42260: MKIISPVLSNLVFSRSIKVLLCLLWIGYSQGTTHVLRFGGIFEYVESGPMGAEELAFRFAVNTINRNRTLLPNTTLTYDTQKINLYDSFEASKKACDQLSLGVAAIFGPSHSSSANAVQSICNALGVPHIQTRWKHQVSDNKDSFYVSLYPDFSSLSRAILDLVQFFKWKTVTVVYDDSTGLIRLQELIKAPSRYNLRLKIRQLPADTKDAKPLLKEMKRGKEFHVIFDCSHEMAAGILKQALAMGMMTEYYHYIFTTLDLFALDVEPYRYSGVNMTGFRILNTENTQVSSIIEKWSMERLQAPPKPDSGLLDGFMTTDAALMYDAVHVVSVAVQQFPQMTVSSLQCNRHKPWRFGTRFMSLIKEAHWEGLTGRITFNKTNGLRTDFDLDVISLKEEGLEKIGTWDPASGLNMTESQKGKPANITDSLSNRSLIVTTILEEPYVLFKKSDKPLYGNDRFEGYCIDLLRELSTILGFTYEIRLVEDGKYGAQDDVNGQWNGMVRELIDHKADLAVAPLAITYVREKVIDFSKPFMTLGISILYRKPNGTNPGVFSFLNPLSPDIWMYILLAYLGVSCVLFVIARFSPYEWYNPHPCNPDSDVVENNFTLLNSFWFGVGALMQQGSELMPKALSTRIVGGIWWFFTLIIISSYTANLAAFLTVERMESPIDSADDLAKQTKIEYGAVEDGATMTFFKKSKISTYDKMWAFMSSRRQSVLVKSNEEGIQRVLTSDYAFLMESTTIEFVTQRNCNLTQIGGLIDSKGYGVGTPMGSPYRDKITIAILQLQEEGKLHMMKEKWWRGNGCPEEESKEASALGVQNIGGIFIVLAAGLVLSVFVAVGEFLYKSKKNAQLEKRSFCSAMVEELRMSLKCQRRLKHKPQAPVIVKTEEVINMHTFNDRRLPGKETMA

Target: T1, R6TM1R3(Y521L) (Rattus norvegicus, UniProt P19492+P42260, A582S/A630S/C576V/C595R/D598Q/D600P/D669E/D672E/E603P/E625D/E665V/E681A/F612L/G615S/H593E/I581V/I639V/INS589HLED/INS599P/K629R/K679E/L568V/L569F/L572I/L608I/L609F/L619F/L626I/M627S/N596D/N605E/P592E/S624C/T607G/T633G/V580L/V601D/V602P/V616L/Y521L/Y566C/Y590N)
T1 construct: the entire extracellular N-terminal region of GluR3flip was substituted by the corresponding region of GluR6; expressed in transfected cells; host or cells: HEK293, transient
Assay: Responses to kainate and effect of cyclothiazide (outside-out patch)
Format: cell-based

## C=C(C)[C@H]1CN[C@H](C(=O)O)[C@H]1CC(=O)O [kainate]
  P/S: 2.71±0.2
  RD: 155 ± 28 s⁻¹
